The data set can be described thus: Solubility test in hexane (Table 1). The class given is physicochemical. The following applies: result in words. Here is the method:
The ligated polyoxometalates of Examples 1-18 were tested for solubility in hexane, together with the organoammonium octamolybdate utilized as a control.

The values that follow come from patent EP0755938B1, “Ligated polyoxometalates and method for their synthesis” (THE B.F. GOODRICH COMPANY, priority 1995, dated 1997).

On to “[(C13H27)2NH2]4{(C6H5P)2Mo5O21} [Example 6]”, for which the Hexane soluble entry was “soluble”.
